What all share (assay): purified protein
Substrate in data set [1]: Cc1cn([C@H]2C[C@H](O)[C@@H](CO[P@@](O)(=S)OP(=O)(O)OP(=O)(O)O)O2)c(=O)[nH]c1=O
The following applies: Mg2+; GTP as AL1 activator active site; AL2 activator.

Substrate in data set [2]: Nc1ncnc2c1ncn2[C@H]1C[C@H](O)[C@@H](CO[P@@](O)(=S)OP(=O)(O)OP(=O)(O)O)O1
The note with it: Mg2+; GTP as AL1 activator active site; AL2 activator.

Substrate in data set [3]: Nc1nc2c(ncn2[C@H]2C[C@H](O)[C@@H](CO[P@@](O)(=S)OP(=O)(O)OP(=O)(O)O)O2)c(=O)[nH]1
The following applies: Mg2+, Fe active site; also allosteric activator at AL1 and AL2.

Substrate in data set [4]: Nc1ccn([C@H]2C[C@H](O)[C@@H](CO[P@@](O)(=S)OP(=O)(O)OP(=O)(O)O)O2)c(=O)n1
The note with it: Mg2+; GTP as AL1 activator active site.

Substrate in data set [5]: Nc1nc2c(ncn2[C@H]2C[C@H](O)[C@@H](COP(=O)(O)OP(=O)(O)OP(=O)(O)O)O2)c(=O)[nH]1
The note with it: Mg2+; GTP as AL1 activator active site; AL1/AL2 activator.

B1: SAMHD1 (Homo sapiens) (protein)
chain: MQRADSEQPSKRPRCDDSPRTPSNTPSAEADWSPGLELHPDYKTWGPEQVCSFLRRGGFEEPVLLKNIRENEITGALLPCLDESRFENLGVSSLGERKKLLSYIQRLVQIHVDTMKVINDPIHGHIELHPLLVRIIDTPQFQRLRYIKQLGGGYYVFPGASHNRFEHSLGVGYLAGCLVHALGEKQPELQISERDVLCVQIAGLCHDLGHGPFSHMFDGRFIPLARPEVKWTHEQGSVMMFEHLINSNGIKPVMEQYGLIPEEDICFIKEQIVGPLESPVEDSLWPYKGRPENKSFLYEIVSNKRNGIDVDKWDYFARDCHHLGIQNNFDYKRFIKFARVCEVDNELRICARDKEVGNLYDMFHTRNSLHRRAYQHKVGNIIDTMITDAFLKADDYIEITGAGGKKYRISTAIDDMEAYTKLTDNIFLEILYSTDPKLKDAREILKQIEYRNLFKYVGETQPTGQIKIKREDYESLPKEVASAKPKVLLDVKLKAEDFIVDVINMDYGMQEKNPIDHVSFYCKTAPNRAIRITKNQVSQLLPEKFAEQLIRVYCKKVDRKSLYAARQYFVQWCADRNFTKPQDGDVIAPLITPQKKEWNDSTSVQNPTRLREASKSRVQLFKDDPM
In general, Km refers to the concentration of substrate that gives half-maximal velocity. As a reminder, the kcat is the number of substrate molecules converted per active site and unit of time at saturation. Consider B1, for which the Km in the data set “purified protein [1]” came out at 38 ± 4 µM; in “purified protein [2]”, 53 ± 2 µM; in the data set “purified protein [3]”, 10 ± 0.5 µM; in “purified protein [4]” it was 54 ± 4 µM; in “purified protein [5]”, 24 ± 2 µM. Moreover, the kcat in the data set “purified protein [1]” is 0.26 ± 0.01 s⁻¹; in the data set “purified protein [2]” it was 0.23 ± 0.01 s⁻¹; in “purified protein [3]” it was 0.09 ± 0.01 s⁻¹; in “purified protein [4]”, 0.12 ± 0.01 s⁻¹; in the data set “purified protein [5]”, 0.27 s⁻¹.

The values above are taken from publication PMC8173608, “Probing the Catalytic Mechanism and Inhibition of SAMHD1 Using the Differential Properties of Rp- and Sp-dNTPαS Diastereomers” (Biochemistry, 2021).
